ChEMBL document CHEMBL1154346 (Bioorg Med Chem Lett, 2009)

Protein sequences, listed by entry. Tags and fused reporters are not part of them. Lines headed by an entry give the natural chain unless they say otherwise; changes in a name come on top.
UniProt P41146: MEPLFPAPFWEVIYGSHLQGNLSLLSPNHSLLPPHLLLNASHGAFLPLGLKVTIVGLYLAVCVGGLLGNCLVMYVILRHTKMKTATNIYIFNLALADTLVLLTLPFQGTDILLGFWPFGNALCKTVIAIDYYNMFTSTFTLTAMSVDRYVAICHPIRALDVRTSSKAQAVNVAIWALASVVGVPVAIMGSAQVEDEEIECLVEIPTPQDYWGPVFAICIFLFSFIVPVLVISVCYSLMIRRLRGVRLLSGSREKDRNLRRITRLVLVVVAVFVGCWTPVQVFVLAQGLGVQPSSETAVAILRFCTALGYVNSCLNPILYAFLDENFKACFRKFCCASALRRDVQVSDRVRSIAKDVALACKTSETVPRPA
UniProt P35372, whole entry, looked up: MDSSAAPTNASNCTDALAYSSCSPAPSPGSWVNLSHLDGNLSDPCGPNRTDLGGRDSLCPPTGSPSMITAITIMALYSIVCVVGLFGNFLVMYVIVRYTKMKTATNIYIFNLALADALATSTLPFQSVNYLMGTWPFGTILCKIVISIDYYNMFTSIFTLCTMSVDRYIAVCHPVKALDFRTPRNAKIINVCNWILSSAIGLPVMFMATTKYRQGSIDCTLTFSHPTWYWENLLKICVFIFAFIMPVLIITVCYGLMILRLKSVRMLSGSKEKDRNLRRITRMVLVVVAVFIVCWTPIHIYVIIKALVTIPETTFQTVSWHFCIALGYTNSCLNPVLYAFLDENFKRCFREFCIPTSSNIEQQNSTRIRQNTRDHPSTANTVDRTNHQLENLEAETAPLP
UniProt Q12809: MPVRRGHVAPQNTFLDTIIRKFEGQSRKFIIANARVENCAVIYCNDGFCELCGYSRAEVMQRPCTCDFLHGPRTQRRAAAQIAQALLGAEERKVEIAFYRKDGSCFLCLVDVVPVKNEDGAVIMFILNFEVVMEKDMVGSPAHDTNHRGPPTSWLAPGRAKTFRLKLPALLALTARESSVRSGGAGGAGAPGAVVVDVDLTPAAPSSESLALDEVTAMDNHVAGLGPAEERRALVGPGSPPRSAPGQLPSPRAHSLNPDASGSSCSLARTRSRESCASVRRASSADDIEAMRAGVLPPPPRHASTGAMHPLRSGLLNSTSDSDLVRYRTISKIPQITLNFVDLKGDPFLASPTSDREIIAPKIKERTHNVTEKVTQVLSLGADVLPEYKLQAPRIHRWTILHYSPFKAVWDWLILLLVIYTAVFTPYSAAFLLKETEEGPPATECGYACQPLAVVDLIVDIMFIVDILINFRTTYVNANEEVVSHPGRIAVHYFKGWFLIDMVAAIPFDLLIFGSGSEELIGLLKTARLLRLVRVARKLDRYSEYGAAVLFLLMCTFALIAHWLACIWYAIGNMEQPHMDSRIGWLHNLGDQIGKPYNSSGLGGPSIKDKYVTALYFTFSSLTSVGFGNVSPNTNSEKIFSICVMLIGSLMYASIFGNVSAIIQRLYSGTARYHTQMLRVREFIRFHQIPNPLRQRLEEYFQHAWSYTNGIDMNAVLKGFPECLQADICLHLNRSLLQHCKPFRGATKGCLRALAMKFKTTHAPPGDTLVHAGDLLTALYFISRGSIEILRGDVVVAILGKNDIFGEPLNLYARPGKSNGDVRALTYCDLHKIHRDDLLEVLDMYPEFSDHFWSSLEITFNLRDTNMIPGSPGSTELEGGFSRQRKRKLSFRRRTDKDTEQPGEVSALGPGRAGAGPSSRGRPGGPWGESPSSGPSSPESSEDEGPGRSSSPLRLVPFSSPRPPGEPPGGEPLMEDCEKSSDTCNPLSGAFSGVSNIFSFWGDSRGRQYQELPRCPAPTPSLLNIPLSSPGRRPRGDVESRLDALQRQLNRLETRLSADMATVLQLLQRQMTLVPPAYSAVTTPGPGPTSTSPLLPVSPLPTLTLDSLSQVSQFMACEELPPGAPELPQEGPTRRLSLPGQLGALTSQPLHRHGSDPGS

Key:
Nociceptin receptor [1] = molecular target: T1, Nociceptin receptor (Homo sapiens, UniProt P41146); assay: Displacement of [3H]nociceptin from human NOP receptor expressed in CHO cells
Mu-type opioid receptor = Mu-type opioid receptor (Homo sapiens, UniProt P35372); assay: Displacement of [3H]diprenorphine from human MOP receptor expressed in CHOK1 cells; settings: cho-k1
Nociceptin receptor [2] = molecular target: T1, Nociceptin receptor; assay: Agonist activity at human NOP receptor expressed in CHO cells assessed as inhibition of forskolin-stimulated cAMP production after 2 hrs
[3] = molecular target: Voltage-gated inwardly rectifying potassium channel KCNH2 (Homo sapiens, UniProt Q12809); assay: Displacement of [3H]dofetilide from human ERG expressed in HEK293 cells; type: cell-based

## CNC(=O)CN1C(=O)OC2(CCN(C3CCC(C(C)C)CC3)CC2)c2ccccc21 (centres undefined)
Nociceptin receptor [1]
  Ki: 106 nM
Mu-type opioid receptor
  Ki: 108 nM
Nociceptin receptor [2]
  IC50: 448 nM

## CNC(=O)CN1C(=O)OC2(CCN(C3CCCCCCCCC3)CC2)c2ccccc21
Nociceptin receptor [1]
  Ki: 28 nM
Mu-type opioid receptor
  Ki: 27 nM
Nociceptin receptor [2]
  IC50: 103 nM

## CNC(=O)CN1N=C(c2ccccc2)C2(CCN(C3CCC(C(C)(C)C)CC3)CC2)C1=O (centres undefined)
Nociceptin receptor [1]
  Ki: 44 nM
Mu-type opioid receptor
  Ki: 7.3 nM
Nociceptin receptor [2]
  IC50: 685 nM

## CNC(=O)CN1N=C(c2ccccc2)C2(CCN(C3CCCCCC3)CC2)C1=O
Nociceptin receptor [1]
  Ki: 227 nM

## CNC(=O)Cn1c(=O)n(C2CCN([C@H]3CC[C@@H](C(C)C)CC3)CC2)c2ccccc21
[3]
  Ki: 4200 nM

## CNC(=O)CN1C(=O)OC2(CCN(C3CCCCCC3)CC2)c2ccccc21
Nociceptin receptor [1]
  Ki: 2150 nM
Mu-type opioid receptor
  Ki: 527 nM

## CNC(=O)CN1C(=O)OC2(CCN(C3CCC(C(C)(C)C)CC3)CC2)c2ccccc21 (centres undefined)
Nociceptin receptor [1]
  Ki: 295 nM
Mu-type opioid receptor
  Ki: 113 nM

## CNC(=O)CN1N=C(c2ccccc2)C2(CCN(C3CCCCCCCCC3)CC2)C1=O
Nociceptin receptor [1]
  Ki: 2.3 nM
Mu-type opioid receptor
  Ki: 1.1 nM
Nociceptin receptor [2]
  IC50: 9.6 nM

## CNC(=O)CN1N=C(c2ccccc2)C2(CCN(C3CCC(C(C)C)CC3)CC2)C1=O (centres undefined)
Nociceptin receptor [1]
  Ki: 11 nM
Mu-type opioid receptor
  Ki: 5.2 nM
Nociceptin receptor [2]
  IC50: 53 nM

## CNC(=O)CN1N=C(c2ccccc2)C2(CCN(C3CCC4CCCCC4C3)CC2)C1=O (centres undefined)
Nociceptin receptor [1]
  Ki: 7.7 nM
Mu-type opioid receptor
  Ki: 5.8 nM
Nociceptin receptor [2]
  IC50: 18 nM
